According to ChEMBL document CHEMBL4043269, “Synthesis and structure activity relationships of carbamimidoylcarbamate derivatives as novel vascular adhesion protein-1 inhibitors” (Bioorg Med Chem, 2017):

What was measured:
[1] = target: T1, Amine oxidase [copper-containing] 3 (Homo sapiens, UniProt Q16853); experiment: Inhibition of human VAP-1 expressed in CHO cells preincubated for 20 mins followed by [14C]-benzylamine addition measured after 1 hr by scintillation spectrometric analysis; format: cell-based
T1 sequence (Q16853 whole entry): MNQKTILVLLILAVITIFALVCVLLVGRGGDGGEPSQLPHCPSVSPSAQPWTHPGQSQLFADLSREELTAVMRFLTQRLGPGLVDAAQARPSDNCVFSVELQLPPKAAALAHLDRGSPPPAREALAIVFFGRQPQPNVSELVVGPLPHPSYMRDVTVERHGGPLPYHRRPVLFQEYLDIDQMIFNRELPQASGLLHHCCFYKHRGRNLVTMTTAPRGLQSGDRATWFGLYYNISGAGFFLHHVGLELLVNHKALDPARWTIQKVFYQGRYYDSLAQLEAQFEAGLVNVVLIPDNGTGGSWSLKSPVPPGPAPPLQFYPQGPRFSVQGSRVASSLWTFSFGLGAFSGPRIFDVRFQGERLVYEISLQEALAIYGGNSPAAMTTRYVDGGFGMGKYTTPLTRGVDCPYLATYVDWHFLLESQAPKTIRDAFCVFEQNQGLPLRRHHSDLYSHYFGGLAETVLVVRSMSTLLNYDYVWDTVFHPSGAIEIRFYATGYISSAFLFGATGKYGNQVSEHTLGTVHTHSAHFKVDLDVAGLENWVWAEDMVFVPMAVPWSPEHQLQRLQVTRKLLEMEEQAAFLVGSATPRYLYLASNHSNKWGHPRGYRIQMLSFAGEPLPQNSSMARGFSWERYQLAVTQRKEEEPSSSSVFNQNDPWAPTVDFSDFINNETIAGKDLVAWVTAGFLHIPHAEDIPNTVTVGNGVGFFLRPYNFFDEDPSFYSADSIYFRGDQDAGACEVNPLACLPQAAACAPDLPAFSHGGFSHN

[2] = target: T2, Amine oxidase [copper-containing] 3 (Rattus norvegicus, UniProt O08590); experiment: Inhibition of rat VAP-1 expressed in CHO cells preincubated for 20 mins followed by [14C]-benzylamine addition measured after 1 hr by scintillation spectrometric analysis; format: ADME, cell-based
T2 sequence (O08590 whole entry): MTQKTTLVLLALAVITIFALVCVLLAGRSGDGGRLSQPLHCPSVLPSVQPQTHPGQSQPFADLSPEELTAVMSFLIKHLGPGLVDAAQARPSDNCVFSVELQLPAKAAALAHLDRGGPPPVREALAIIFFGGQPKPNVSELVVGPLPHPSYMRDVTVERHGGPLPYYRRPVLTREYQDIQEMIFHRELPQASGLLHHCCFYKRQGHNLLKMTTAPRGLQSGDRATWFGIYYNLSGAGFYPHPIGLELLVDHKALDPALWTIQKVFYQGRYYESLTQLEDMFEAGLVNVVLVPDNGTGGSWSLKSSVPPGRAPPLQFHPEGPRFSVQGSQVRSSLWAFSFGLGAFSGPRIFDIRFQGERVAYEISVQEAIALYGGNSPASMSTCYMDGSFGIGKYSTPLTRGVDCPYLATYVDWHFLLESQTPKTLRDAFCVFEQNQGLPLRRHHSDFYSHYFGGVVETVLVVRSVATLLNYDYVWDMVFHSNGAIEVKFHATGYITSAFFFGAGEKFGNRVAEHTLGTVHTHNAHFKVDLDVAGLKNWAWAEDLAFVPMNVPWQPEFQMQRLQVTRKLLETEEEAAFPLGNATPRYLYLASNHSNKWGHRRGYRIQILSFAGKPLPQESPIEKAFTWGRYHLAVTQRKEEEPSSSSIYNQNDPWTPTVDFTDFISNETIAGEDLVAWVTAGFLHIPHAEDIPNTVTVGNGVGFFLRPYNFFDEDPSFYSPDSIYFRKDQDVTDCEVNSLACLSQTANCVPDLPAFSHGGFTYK

How did the IC50 [1] turn out when `N=C(N)NC(=O)OCc1cccc(N2CCN(c3cccnc3)CC2)c1F.O=C(O)C(O)C(O)C(=O)O` was run?
Its IC50 is 0.017 µM.

`Cc1ccc(OC2CN(c3cccc(COC(=O)NC(=N)N)c3F)C2)cn1.O=C(O)C(O)C(O)C(=O)O` was tested. Which IC50 [2] did it give?
The IC50 was 0.0052 µM.
